Ab-14 heavy chain CDR variants: yeast mating affinities

Target peptide (SARS-CoV-2 spike, HR2 region): PDVDLGDISGINAS

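Phage display of a naive human antibody library on the peptide gave the parent. These sequences belong to a second round, designed from the earlier measurements on random variants of the parent. Several design methods are mixed in this list. In AlphaSeq, yeast of one mating type display the scFv and yeast of the other type display the target. The frequency of each diploid, read from paired DNA barcodes, reflects how well the two displayed proteins bind. Read counts were normalised to the haploid input and turned into Kd by a linear fit to BCL2-family pairs of known affinity, for each replicate. Each pool was mated in six replicate cultures.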

Parent scFv Ab-14: VH joined to VL by three GGGGS repeats. Changes lie in the heavy chain CDRs alone.
VH: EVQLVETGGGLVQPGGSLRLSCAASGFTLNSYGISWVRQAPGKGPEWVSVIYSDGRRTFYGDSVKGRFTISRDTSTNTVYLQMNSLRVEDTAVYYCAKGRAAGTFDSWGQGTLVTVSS
VL: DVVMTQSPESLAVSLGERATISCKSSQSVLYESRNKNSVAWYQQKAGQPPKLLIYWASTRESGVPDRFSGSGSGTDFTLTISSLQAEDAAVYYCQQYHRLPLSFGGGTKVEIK

Variants are written as CDR1, CDR2 and CDR3 of the heavy chain (limits as in the source). Parent: GFTLNSYGIS, VIYSDGRRTFYGDSVK, GRAAGTFDS. Scale: log10 of Kd in nM, estimated from mating counts; low values are strong binders. The mean shown is taken over the replicates in which the pair was detected. "nd" means that the variant was in the library but no mating with the target was seen in any replicate; the authors take this as a sign of poor binding, and no number exists. The list is sorted by this average, lowest first, undetected variants last.

CDR-H1	CDR-H2	CDR-H3	mean log10 Kd (nM)	replicates with signal	signal with controls
GFQLNDYGIS	VIYSDGRRTFYGDQVK	GRTAGTFDS	-1.20	5/6	0/18
GFDLDEYGIS	VIYADGRRTFYADSVK	GTNAGTFDL	-1.05	6/6	0/18
GFDLDEYGIS	VIYADGVRTYYADSVK	GNVAGTFDV	-0.73	6/6	0/18
GFDLNSYGIS	VIYSDGRRTAYGDSVK	GRLAGTFDS	-0.48	5/6	0/18
GFSLNSYGIS	VIYADGRRTFYQDSVK	GEAAGTFDS	-0.45	6/6	0/18
GFDLNQYGIS	VIYSDGRRTFYSDSVK	GRQAGTFDS	-0.42	6/6	0/18
GFDLNEYGIS	VIYADGKRTYYADSVK	GNTAGTFDV	-0.39	6/6	0/18
GFDLNEYGIS	VIYADGQRTAYADNVK	GENAGTFDV	-0.29	6/6	0/18
GFDLNEYGIS	VIYADGMRTAYADSVK	GKVAGTFDV	-0.26	5/6	0/18
GFNLEDYGIS	VIYADGMRTFYADSVK	GEVAGTFDV	-0.09	6/6	0/18
GFDLEEYGIS	VIYADGKRTAYADSVK	GNTAGTFDV	0.05	6/6	0/18
GFTLNEYGIS	VIYSDGRRTFYGDSVK	GRAAGTFGL	0.07	6/6	0/18
GFTLESYGIS	VIYADGRRTFYGDSVK	GQAAGTFDT	0.33	6/6	0/18
GFSLNSYGIS	VIYSDGRRTFYADTVK	GEAAGTFDK	0.40	6/6	1/18
GFDLNSYGIS	VIYSDGRRTFYVDSVK	GKAAGTFDS	0.42	6/6	1/18
GFTLDSYGIS	VIYSDGRRTFYADSVK	GRAAGTFDV	0.44	6/6	0/18
GFQLNDYGIS	VIYSDGRRTFYKDSVK	GRTAGTFDS	0.47	6/6	0/18
GFELNSYGIS	VIYSDGRRTFYHDSVK	GQTAGTFDS	0.64	6/6	0/18
GFTINDYGIS	VIYSDGRRTFYGDSVK	GQAAGTFDS	0.73	6/6	1/18
GFDLNTYGIS	VIYSDGRRTFYGDSVK	GQAAGTFDR	0.77	6/6	0/18
GFGIGEYGIS	VIYADGRRTFYSDDVK	GNMIVNGVD	0.84	6/6	0/18
GFTLNDYGIS	VIYSDGRRTYYGDSVK	GRAAGTFDS	1.06	4/6	0/18
GFPLNEYGIS	VIYSDGRRTFYGDSVK	GRAAGTFDS	1.19	12/12	1/36
GFELNMYGIS	VIYSDGRRTFYGDSVK	GREAGTFDS	1.23	6/6	0/18
GFALNSYGIS	VIYSDGRRTYYGDSVK	GRAAGTFDS	1.57	2/6	0/18
GFTLNEYGIS	VIYSDGRRTFYGDSVK	GRAAGTFTD	2.00	1/6	0/18
GFTLNDYGIS	VIYSDGRRTFYIDSVK	GRAGGTFDS	2.40	3/6	0/18
GFQLDEYGIS	VIYADGKRTAYAANFK	GNGLVLYEG	2.92	1/6	0/18
GFDLAEYGIS	VIYADGQRKSYADSFK	GRWSGQVIM	nd	0/6	0/18
GDGLLEYGIS	VIYADGMRESYAENVK	GQTGGTFVL	nd	0/6	0/18
GFTLNSYGIS	VIYSDGRRTFYLDSVK	GRADGPKDS	nd	0/6	0/18
GFTLNDYGIS	VIYSDGRRTLYIDSVK	GRAAGTFDS	nd	0/6	0/18
GFTLNDYGIS	VIYSDGRRTFYKDSVK	GRAAGTFRS	nd	0/6	0/18
KFKLNSYGIS	VIYSDGRRTFYKDSVK	GRTAGTFDS	nd	0/6	1/18
GFSLNSYGIS	VIYSDGRRTFYGDSVK	GLNAGTFDS	nd	0/6	1/18
GFTLNEYGIS	VIYSDGRRTFYGDSYK	GRAAATPDS	nd	0/6	0/18
GFTLNDYGIS	VIYSDGMRTFYGDSVK	GRTAGTFWS	nd	0/6	0/18
GFDQNSYGIS	VIYSDGRRTFYPDSVK	GRAAGWFNS	nd	0/6	0/18
GFDINEYGIS	VIYADGNRIAYQDQVK	GFNAGSFVI	nd	0/6	0/18
GFTLNEYGIS	VIYSDGRRTFYTDSVK	GRAAGMFDS	nd	0/6	0/18
GDGLKEMGIS	VIYADGMREAYVKDVK	GQTAGTFVL	nd	0/6	0/18
KFTLNEYGIS	VIYSDGRRTFYGDSVK	GRCAGTFDS	nd	0/6	0/18
GFTINSYGIS	VIYSDGRRTFYGDSVK	RRAIGTFDS	nd	0/6	0/18
GFTLEQYGIS	VIYSDGRSVFYGDSVK	GFAAGAFKQ	nd	0/6	0/18
GFSLNSYGIS	VIYSNGRRTFYGDDVR	GRAAKTFDS	nd	0/6	0/18
VFTRNHYGIS	VIISDGRRTFYSDAVK	GRAAGFFDE	nd	0/6	0/18
GKDLDEYGIS	VIYADGMRTFYLNTVK	GEDGFDLNQ	nd	0/6	0/18
GFKLNSYGIS	VIYADGVRTFYGDSVK	GRAAGTNKS	nd	0/6	0/18
GFTLNSYGIS	VIYSDGRRTFYGDSVK	GRLTGTFDS	nd	0/6	0/18

The first 7 entries again:

CDR-H1	CDR-H2	CDR-H3	mean log10 Kd (nM)	replicates with signal	signal with controls
GFQLNDYGIS	VIYSDGRRTFYGDQVK	GRTAGTFDS	-1.20	5/6	0/18
GFDLDEYGIS	VIYADGRRTFYADSVK	GTNAGTFDL	-1.05	6/6	0/18
GFDLDEYGIS	VIYADGVRTYYADSVK	GNVAGTFDV	-0.73	6/6	0/18
GFDLNSYGIS	VIYSDGRRTAYGDSVK	GRLAGTFDS	-0.48	5/6	0/18
GFSLNSYGIS	VIYADGRRTFYQDSVK	GEAAGTFDS	-0.45	6/6	0/18
GFDLNQYGIS	VIYSDGRRTFYSDSVK	GRQAGTFDS	-0.42	6/6	0/18
GFDLNEYGIS	VIYADGKRTYYADSVK	GNTAGTFDV	-0.39	6/6	0/18

The authors averaged sequences with at least three values out of six and counted those with two or fewer as poor binders. Where one sequence has several entries in the source, the replicates are pooled. A sequence measured in both rounds can read differently, since the two assays cover different ranges. As a blank, each scFv also met three strains without target: over all heavy chain designs, 1% of these pairings were detected, typically at 2.08 and seldom below 0.84. The control count says in how many pairings with the empty strains this scFv gave a signal.

Source: Li et al. 2023 (doi:10.1038/s41467-023-39022-2), MIT Lincoln Laboratory and A-Alpha Bio; data file from the FLAb repository.